# Measurements published in patent publication US20210161999A1, “COMPOSITIONS AND METHODS RELATED TO OVERCOMING INNATE IMMUNE BARRIERS TO CANCER IMMUNOTHERAPY” (Health Research, Inc., priority 2018, published 2021).
# Legend:
# [1] = system: PMN suppressor phenotype (suppression of anti-CD3/CD28-stimulated T cell proliferation); assay: Coculture of PMN with ascites supernatants and anti-CD3/CD28-stimulated T cells; T cell proliferation by [3H] thymidine incorporation; assay type: cell-based, human; conditions: primary T cells; rIL-2 (100 IU) added at 48 h, assessed at 72 h
# Description: Freshly isolated T cells (1e5) were stimulated with anti-CD3/CD28 Dynabeads (2.5 μl; Thermo Fisher Scientific) and cocultured with autologous PMN (1:1) and ascites supernatants (50% final well volume) in an incubator at 37° C., 5% CO2. After 72 h, [^3H] thymidine (1 μCi per well) was added and allowed to incorporate for 16-18 h. Cells were harvested onto a Filtermat and counted on a Beta counter. Results are expressed as net cpm [calculated by subtracting the average cpm of unstimulated T cells from the average cpm of stimulated T cells].
# Where indicated, T cells, PMN, and ascites supernatants underwent various pretreatments. Where indicated, T cells were pretreated for lh with neutralizing antibody against ICAM-I (1-10 μg), IgG1 isotype (1-10 μg), or media (RPMI 1640, 5-10% heat-inactivated FBS, HEPES, sodium pyruvate, non-essential amino acids, and penicillin-streptomycin). […]
# TCR-CTL = assay: Coculture of engineered NY-ESO-1 TCR-CTL with PMN and ascites supernatants; CTL proliferation by [3H] thymidine incorporation; assay type: cell-based, human; conditions: rIL-2 (100 IU) added at 48 h
# Description: FIG. 7. PMN suppressor phenotype inhibits engineered effector T cell activation but not antigen-specific cytotoxicity. Engineered CTL expressing NYESO1-specific TCR (TCR-CTL) are candidates for adoptive cell therapy in EOC. TCR-CTL and PMN were used in coculture at 1:1. PMN and/or ascites supernatants (ASC; 50% final well volume) were added to anti-CD3/CD28-stimulated TCR-CTL. After 72 h of coculture (A) or after rIL-2 (100 IU) addition at 48 h (B), CTL proliferation was measured by [^3H] thymidine incorporation (16-18 h) (n=3). A) ASC and MD-ASC rendered PMN suppressive to TCR-CTL, while PK-ASC had no effect. […] C) IFN-gamma expression was reduced with PMN and/or ASC or PK-ASC, as measured by flow cytometry after 72 h of coculture (n=2). Symbols represent individual samples (n) and bars represent SEM. Statistical comparisons were by ANOVA with Tukey post-test (*, p<0.05; **, p<0.01; ***, p<0.001; ns, not significant).
# Freshly isolated T cells (1e5) were stimulated with anti-CD3/CD28 Dynabeads (2.5 μl; Thermo Fisher Scientific) and cocultured with autologous PMN (1:1) and ascites supernatants (50% final well volume) in an incubator at 37° C., 5% CO2. […] Cells were harvested onto a Filtermat and counted on a Beta counter. Results are expressed as net cpm [calculated by subtracting the average cpm of unstimulated T cells from the average cpm of stimulated T cells]. […]
substance,measurement,setting,value
rIL-2: recombinant IL-2,rescue of T cell proliferation (reversal of T cell suppression),[1],did not rescue T cell proliferation; also recorded: did not reverse T cell suppression
same,effect on suppression of TCR-CTL proliferation,TCR-CTL,reversed suppression; also recorded: completely restored proliferation

# “Also recorded” adds a separate entry of the source.
